In PubChem BioAssay AID652067 (The Scripps Research Institute Molecular Screening Center, 2013):
This is a selection; strong and weak results do not stand in their true shares. Active and inactive are the calls of the source.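 How the source made its calls: active means activation above the mean of all tested compounds plus 3 SD (cut at about 5.5% in these data); inactive means the rest.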

The compounds below were run on DAF-12 nuclear receptor (Haemonchus contortus) (assay: hcDAF-12 driven luciferase reporter activation – cell-based, luminescence, HEK293, lit1-tk-luc reporter, primary screen (AID 652067;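 further: 100% = response to 3 µM Δ7-dafachronic acid high control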)). Settings: HEK293 hcDAF-12 lit1-tk-luc reporter, at 6.8 µM, hits give high values, 0% DMSO, 100% Δ7-dafachronic acid.
For `O=[N+]([O-])c1cc([N+](=O)[O-])c(Nc2ccc(Cl)cc2)c([N+](=O)[O-])c1`, the activation was inactive: -1.51%.
`CP(=O)(Nc1ccccc1F)Oc1ccccc1` (centres undefined) was tested, and the activation was inactive: 0.59%.
`CC(C)c1ccc(OP(C)(=O)Nc2ccc(SC(F)(F)F)cc2)cc1` (centres undefined) was tested, and the activation was inactive: -2.26%.
For `CP(=O)(Nc1ccc2c(c1)OCCO2)Oc1ccccc1` (centres undefined), the activation was inactive: -1.28%.
In the case of `Cc1ccccc1NP(C)(=O)Nc1ccccc1C`, the activation is reported as inactive: -0.92%.
With `O=[N+]([O-])c1cc([N+](=O)[O-])c(C(F)(F)F)c([N+](=O)[O-])c1O` the activation was inactive: -0.61%.
For `CP(=O)(Nc1ccc(SC(F)(F)F)cc1)Oc1ccc(F)cc1` (centres undefined), the activation was inactive: -1.43%.
In the case of `CCOP(C)(=S)SCC(=O)NC(C)(CC)C(=O)O` (centres undefined), the activation is reported as inactive: -2.04%.
With `CCOP(=O)(CC)OCC` the activation was inactive: 1.64%.
`O=[N+]([O-])c1ccc(OP2(=O)COCCO2)cc1` (centres undefined) was tested, and the activation was inactive: -0.8%.
With `O=[N+]([O-])c1cc([N+](=O)[O-])c(NCC2CCS(=O)(=O)C2)c([N+](=O)[O-])c1` (centres undefined) the activation was inactive: -4.3%.
For `Cc1cc(-c2cccc3ccccc23)c(C)cn1.O=[N+]([O-])c1cc([N+](=O)[O-])c(O)c([N+](=O)[O-])c1`, the activation was inactive: -1.81%.
In the case of `Cc1c(C(c2ccc3c(c2)OCO3)c2c(C)n(C)n(-c3ccccc3)c2=O)c(=O)n(-c2ccccc2)n1C.O=[N+]([O-])c1cc([N+](=O)[O-])c(O)c([N+](=O)[O-])c1`, the activation is reported as inactive: -0.37%.
For `COc1ccc(OP(C)(=O)Nc2cccc(Br)c2)cc1` (centres undefined), the activation was inactive: -0.73%.
For `CN(C)CCOC(=O)C(O)(c1ccccc1)C1CCCCC1` (centres undefined), the activation was inactive: -1%.
`COc1ccc(NP(C)(=O)Oc2ccccc2OC)cc1` (centres undefined) was tested, and the activation was inactive: -1.25%.
In the case of `Nc1ccc2c(ccc3cccnc32)n1.O=[N+]([O-])c1cc([N+](=O)[O-])c(O)c([N+](=O)[O-])c1`, the activation is reported as inactive: 3.02%.
For `CCOC(=O)c1ccc(NP(C)(=O)Oc2ccc(Cl)cc2)cc1` (centres undefined), the activation was inactive: 1.27%.
In the case of `CP(=O)(OC12CC3CC(CC(C3)C1)C2)OC12CC3CC(CC(C3)C1)C2`, the activation is reported as inactive: -0.85%.
In the case of `COc1ccccc1OP(C)(=O)Nc1ccccc1Br` (centres undefined), the activation is reported as inactive: -2.34%.
In the case of `CC(C)(C)c1ccc(OP(C)(=O)O)cc1`, the activation is reported as inactive: -1.83%.
With `CP(=O)(Nc1ccc(Cl)cc1)Oc1ccc(F)cc1` (centres undefined) the activation was inactive: -1.12%.
With `CN(C)C(=O)c1c([N+](=O)[O-])cc([N+](=O)[O-])cc1[N+](=O)[O-]` the activation was inactive: -1.99%.
`CCN(CC)CC(O)COC(=O)C(O)(c1ccccc1)C1CCCCC1` (centres undefined) was tested, and the activation was inactive: -1.35%.
With `COc1ccc(OP(C)(=O)Nc2ccc(Br)cc2)cc1` (centres undefined) the activation was inactive: -1.44%.
With `COc1ccccc1OP(C)(=O)Nc1c(C)n(C)n(-c2ccccc2)c1=O` (centres undefined) the activation was inactive: -0.92%.
With `O=C(OCCCN1CCCC1)C(O)(c1ccccc1)C1CCCCC1` (centres undefined) the activation was inactive: -0.23%.
For `CP(=O)(Oc1ccccc1)N1CCOC1=O` (centres undefined), the activation was inactive: -1.01%.
`CCc1ccc(OP(C)(=O)Nc2cccnc2)cc1` (centres undefined) was tested, and the activation was inactive: 0.43%.
With `Cc1c(NP(C)(=O)Oc2ccc(C(C)C)cc2)c(=O)n(-c2ccccc2)n1C` (centres undefined) the activation was inactive: -1.38%.
For `O=[N+]([O-])c1cc([N+](=O)[O-])c(Nc2ccccn2)c([N+](=O)[O-])c1`, the activation was inactive: -0.57%.
With `CP(=O)(Nc1ccccn1)Oc1ccccc1` (centres undefined) the activation was inactive: 1.89%.
With `COc1ccccc1OP(C)(=O)Nc1ccc(C)cc1C` (centres undefined) the activation was inactive: -1.04%.
For `CCc1ccc(OP(C)(=O)O)cc1`, the activation was inactive: -0.3%.
With `COc1ccccc1OP(C)(=O)Nc1ccc(Br)cc1` (centres undefined) the activation was inactive: -0.77%.
In the case of `COc1ccc(OP(C)(=O)Nc2ccccn2)cc1` (centres undefined), the activation is reported as inactive: -0.28%.
`CN(C)CCOC(=O)C(O)(c1ccccc1)C1CCCC1` (centres undefined) was tested, and the activation was inactive: -1.66%.
For `CCCCCCCCCCCCCCCC1C[N+](C)(C)CCOP(C)(=O)O1` (centres undefined), the activation was inactive: -0.76%.
In the case of `CP(=O)(Nc1ccc(Cl)cc1Cl)Oc1ccccc1` (centres undefined), the activation is reported as inactive: 0.46%.
For `CP(=O)(OCCOc1ccccc1)OCCOc1ccccc1`, the activation was inactive: -1.37%.
With `O=C1C(O)=C([N+](=O)[O-])C(=O)C(O)=C1[N+](=O)[O-]` the activation was inactive: 1.78%.
In the case of `Cc1cc(C)cc(OP(C)(=O)Nc2cccc(C(F)(F)F)c2)c1` (centres undefined), the activation is reported as inactive: -1.52%.
In the case of `COc1ccccc1OP(C)(=O)Nc1ccc(C)c(C)c1` (centres undefined), the activation is reported as inactive: -0.56%.
For `COc1ccc(OP(C)(=O)Nc2ccccc2Br)cc1` (centres undefined), the activation was inactive: 1.22%.
